scFv variants of Ab-14 (light chain) against a SARS-CoV-2 spike peptide

Reference: Engelhart et al. 2022, doi:10.1038/s41597-022-01779-4. File: FLAb, binding data.

All variants were tested on one target, the spike HR2 peptide PDVDLGDISGINAS (SARS-CoV-2).

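The parent was found by panning a naive human phage display library on the peptide. The library (AAYL50) carries one to three amino acid substitutions per variant, with no insertions or deletions. The scFvs were displayed on barcoded MATa yeast, the peptide on MATalpha yeast. Binding brings cells together so that they mate, and sequencing counts the barcode pairs among the diploids. The ratio of observed to expected reads was calibrated, replicate by replicate, on BCL2-family standards whose Kd was known from biolayer interferometry. The assay was run in three technical replicates.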

The variants keep the heavy chain, the linker and the frameworks of Ab-14 (scFv order VH, the linker GGGGSGGGGSGGGGS, VL).
VH: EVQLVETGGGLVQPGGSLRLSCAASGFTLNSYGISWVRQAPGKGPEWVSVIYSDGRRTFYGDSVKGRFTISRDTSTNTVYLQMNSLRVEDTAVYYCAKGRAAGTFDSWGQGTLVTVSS
VL: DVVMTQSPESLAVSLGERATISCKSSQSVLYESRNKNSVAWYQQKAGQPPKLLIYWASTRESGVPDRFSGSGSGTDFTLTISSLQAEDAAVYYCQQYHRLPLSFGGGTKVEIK

The parent's light chain CDRs are KSSQSVLYESRNKNSVA, WASTRES, QQYHRLPLS; each variant's own CDRs replace them letter for letter.
The read-out is the apparent dissociation constant on a log10 scale (nM): the lower, the stronger.
A pair that was not seen in that replicate is written "nd"; this usually means weak binding, but a binder can also be missed.
Parent in this assay: reference entry 0.65, copy in this library 1.68.
Nonspecific signal, from three strains lacking the peptide, appeared in 18% of pairings of library AAYL50, centred on 4.19 (5% of these signals below 2.99); values are not corrected for it. Also given: how often the same scFv was detected with the empty control strains, with their mean in brackets.

{"CDR-L1": "KSSQSVLYESRIKNSVA", "CDR-L2": "WASTAES", "CDR-L3": "HQYHRLPLS", "log10 Kd (nM) by replicate": "nd nd nd", "empty controls": "3/9 (4.07)"}
{"CDR-L1": "KSPQSVLYESRNKNSPN", "CDR-L2": "WASTRES", "CDR-L3": "QQYHRLPLS", "log10 Kd (nM) by replicate": "nd nd nd", "empty controls": "0/9"}
{"CDR-L1": "KSSQSVLYQSRNKLSVA", "CDR-L2": "WASTRES", "CDR-L3": "QQYHWLPLS", "log10 Kd (nM) by replicate": "nd nd nd", "empty controls": "0/9"}
{"CDR-L1": "KSSQSVLYSSRNKNFVA", "CDR-L2": "WAETRES", "CDR-L3": "QQYHRLPLS", "log10 Kd (nM) by replicate": "nd 4.25 nd", "empty controls": "1/9 (3.24)"}
{"CDR-L1": "KSSQSVLYESRNFNSVA", "CDR-L2": "DASTRES", "CDR-L3": "QQSHRLPLS", "log10 Kd (nM) by replicate": "nd 1.96 nd", "empty controls": "0/9"}
{"CDR-L1": "KSSQSVLYESRNKNTVA", "CDR-L2": "WASTRES", "CDR-L3": "QQYARLPCS", "log10 Kd (nM) by replicate": "3.42 3.93 4.86", "empty controls": "0/9"}
{"CDR-L1": "KSPQDVLYESRNKDSVA", "CDR-L2": "WASTRES", "CDR-L3": "QQYHRLPLS", "log10 Kd (nM) by replicate": "1.09 1.40 1.42", "empty controls": "5/9 (4.38)"}
{"CDR-L1": "KQSQSVLYESRNKNRVA", "CDR-L2": "WASTRES", "CDR-L3": "QQYHRLPLS", "log10 Kd (nM) by replicate": "3.19 nd nd", "empty controls": "1/9 (2.56)"}
{"CDR-L1": "KSVQSVLYESRNKNSVL", "CDR-L2": "WACTRES", "CDR-L3": "QQYHRLPLS", "log10 Kd (nM) by replicate": "nd nd 2.36", "empty controls": "0/9"}
{"CDR-L1": "KSPQSVLYESRNKNSVQ", "CDR-L2": "WASTRES", "CDR-L3": "QQYVRLPLS", "log10 Kd (nM) by replicate": "nd nd nd", "empty controls": "0/9"}
{"CDR-L1": "KSSQSVLYCSRNKNSVA", "CDR-L2": "TASTRES", "CDR-L3": "QQYHRLPGS", "log10 Kd (nM) by replicate": "nd 4.12 nd", "empty controls": "0/9"}
{"CDR-L1": "KSSQSVLYESRNINSVA", "CDR-L2": "WASTRET", "CDR-L3": "QQYHREPLS", "log10 Kd (nM) by replicate": "0.59 1.45 1.95", "empty controls": "0/9"}
{"CDR-L1": "KSSQSVLFESRNKNSVA", "CDR-L2": "WHSTRES", "CDR-L3": "QQYHRLPYS", "log10 Kd (nM) by replicate": "nd nd nd", "empty controls": "1/9 (5.41)"}
{"CDR-L1": "KCSQSVLYESRNKNSVA", "CDR-L2": "WASTREH", "CDR-L3": "QPYHRLPLS", "log10 Kd (nM) by replicate": "nd 4.42 nd", "empty controls": "2/9 (4.09)"}
{"CDR-L1": "KSSKSVLYESDNLNSVA", "CDR-L2": "WASTRES", "CDR-L3": "QQYHRLPLS", "log10 Kd (nM) by replicate": "nd nd nd", "empty controls": "2/9 (4.45)"}
{"CDR-L1": "PSSQSVLYESRNKNSVA", "CDR-L2": "WHSTRES", "CDR-L3": "QQYHRLPIS", "log10 Kd (nM) by replicate": "3.46 nd nd", "empty controls": "2/9 (4.10)"}
{"CDR-L1": "KSSQSVLMESRHKNSVK", "CDR-L2": "WASTRES", "CDR-L3": "QQYHRLPLS", "log10 Kd (nM) by replicate": "nd nd nd", "empty controls": "3/9 (4.80)"}
{"CDR-L1": "KSSQSVLYESRNKNNVA", "CDR-L2": "WAVTRTS", "CDR-L3": "QQYHRLPLS", "log10 Kd (nM) by replicate": "nd nd nd", "empty controls": "0/9"}
{"CDR-L1": "KSSQSVLYESRNKNSVA", "CDR-L2": "WASDREF", "CDR-L3": "QQYHYLPLS", "log10 Kd (nM) by replicate": "2.24 2.28 2.33", "empty controls": "6/9 (5.26)"}
{"CDR-L1": "KSTQSVLYESRNKNSVA", "CDR-L2": "WCSTRES", "CDR-L3": "CQYHRLPLS", "log10 Kd (nM) by replicate": "nd 4.14 nd", "empty controls": "1/9 (4.49)"}
{"CDR-L1": "KSSQQVLYESQNKNSVA", "CDR-L2": "WASTRES", "CDR-L3": "QQYHRCPLS", "log10 Kd (nM) by replicate": "0.53 0.73 0.72", "empty controls": "1/9 (3.59)"}
{"CDR-L1": "KSSQSVLYESRNKNSVD", "CDR-L2": "WANTRES", "CDR-L3": "QQYHRLPDS", "log10 Kd (nM) by replicate": "4.78 5.27 5.97", "empty controls": "0/9"}
{"CDR-L1": "KSSQSVNYESRFKNSVA", "CDR-L2": "WASTRES", "CDR-L3": "MQYHRLPLS", "log10 Kd (nM) by replicate": "nd nd nd", "empty controls": "1/9 (3.27)"}
{"CDR-L1": "KSNQSVLYESRTKNSVA", "CDR-L2": "WASTRES", "CDR-L3": "QPYHRLPLS", "log10 Kd (nM) by replicate": "nd nd nd", "empty controls": "1/9 (3.63)"}
{"CDR-L1": "KSSQSVLYESRNKNSVA", "CDR-L2": "WASTVES", "CDR-L3": "QQYHTLPLS", "log10 Kd (nM) by replicate": "2.21 3.20 2.86", "empty controls": "3/9 (3.52)"}

A selection of 2 entries from above:

CDR-L1	CDR-L2	CDR-L3	log10 Kd (nM) by replicate	empty controls
KSSQSVLYCSRNKNSVA	TASTRES	QQYHRLPGS	nd 4.12 nd	0/9
KSSQSVLYESRNKNTVA	WASTRES	QQYARLPCS	3.42 3.93 4.86	0/9